Laboratory results published in the kinase profiling compilation of Christmann-Franck et al. (2016).

Sequences of proteins named here, by UniProt entry; tags and fusion partners are left off. A change or cut given only in a name is not applied to a line headed by its entry.
UniProt P49841: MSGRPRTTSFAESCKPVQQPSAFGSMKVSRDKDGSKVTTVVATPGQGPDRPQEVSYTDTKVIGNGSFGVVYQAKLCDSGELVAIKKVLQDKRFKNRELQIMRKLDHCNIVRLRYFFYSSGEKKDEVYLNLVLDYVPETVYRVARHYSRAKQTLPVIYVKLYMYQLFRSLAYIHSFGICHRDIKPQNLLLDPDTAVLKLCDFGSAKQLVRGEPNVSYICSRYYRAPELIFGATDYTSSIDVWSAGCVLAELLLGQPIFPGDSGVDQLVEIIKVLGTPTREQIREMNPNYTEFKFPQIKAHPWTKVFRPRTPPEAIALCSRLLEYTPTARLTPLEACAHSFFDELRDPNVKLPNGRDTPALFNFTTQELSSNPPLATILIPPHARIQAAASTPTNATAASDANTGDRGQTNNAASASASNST

Biological target: GSK3B (human) (UniProt P49841)
Experiment: radiometric filter-binding kinase assay
Conditions: ATP 100 µM

IC50: 0.19 µM
Compound: O=C1Nc2ccccc2/C1=C1\Nc2ccccc2\C1=N/O
